According to IntAct's records for PubMed 15841490:

B1: SH2 domain-containing protein 1A (Homo sapiens), O60880-1 (parent)
chain: MDAVAVYHGKISRETGEKLLLATGLDGSYLLRDSESVPGVYCLCVLYHGYIYTYRVSQTETGSWSAETAPGVHKRYFRKIKNLISAFQKPDQGIVIPLQYPVEKKSSARSTQGTTGIREDPDVCLKAP
partner: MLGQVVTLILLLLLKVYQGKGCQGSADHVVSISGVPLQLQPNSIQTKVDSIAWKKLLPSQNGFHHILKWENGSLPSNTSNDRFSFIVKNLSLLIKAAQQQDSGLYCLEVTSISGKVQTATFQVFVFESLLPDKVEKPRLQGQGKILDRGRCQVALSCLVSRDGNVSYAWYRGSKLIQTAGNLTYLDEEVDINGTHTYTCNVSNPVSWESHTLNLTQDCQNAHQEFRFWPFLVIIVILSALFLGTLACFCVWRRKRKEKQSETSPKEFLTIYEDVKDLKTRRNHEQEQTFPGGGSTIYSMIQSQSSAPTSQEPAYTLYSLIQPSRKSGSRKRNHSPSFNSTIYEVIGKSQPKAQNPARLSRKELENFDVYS

Variants of: B1
Settings: with cd244_human CD244, Q9BZW8

Variant	effect of a mutation on the interaction
G16D	disrupting interaction strength
